pIC50: −log10 of the molar value. Read-outs that look alike come from different tables or passages of the source.
Target: PI3Kα H1047R (T47D cells) (Homo sapiens, UniProt P42336, H1047R)
Assay: PI3Kα cellular assay: pAKT HTRF in T47D cells after EGF stimulation
Assay type: cell-based
Details: for pIC50: read-out: T47D pAKT S473 HTRF IC50 (H1047R): Average IC50, T47D cells (PI3Kα H1047R), pAKT S473 HTRF
[1] = selectivity of T47D (H1047R) over SKBR3 (WT) pAKT IC50
[2] = 1 hr compound, 20 ng/ml EGF 10 min
[3] = selectivity T47D (H1047R) over SKBR3 (WT), pAKT HTRF

Sequences of proteins named here, by UniProt entry; tags and fusion partners are left off.
UniProt P42336, whole entry H1047R: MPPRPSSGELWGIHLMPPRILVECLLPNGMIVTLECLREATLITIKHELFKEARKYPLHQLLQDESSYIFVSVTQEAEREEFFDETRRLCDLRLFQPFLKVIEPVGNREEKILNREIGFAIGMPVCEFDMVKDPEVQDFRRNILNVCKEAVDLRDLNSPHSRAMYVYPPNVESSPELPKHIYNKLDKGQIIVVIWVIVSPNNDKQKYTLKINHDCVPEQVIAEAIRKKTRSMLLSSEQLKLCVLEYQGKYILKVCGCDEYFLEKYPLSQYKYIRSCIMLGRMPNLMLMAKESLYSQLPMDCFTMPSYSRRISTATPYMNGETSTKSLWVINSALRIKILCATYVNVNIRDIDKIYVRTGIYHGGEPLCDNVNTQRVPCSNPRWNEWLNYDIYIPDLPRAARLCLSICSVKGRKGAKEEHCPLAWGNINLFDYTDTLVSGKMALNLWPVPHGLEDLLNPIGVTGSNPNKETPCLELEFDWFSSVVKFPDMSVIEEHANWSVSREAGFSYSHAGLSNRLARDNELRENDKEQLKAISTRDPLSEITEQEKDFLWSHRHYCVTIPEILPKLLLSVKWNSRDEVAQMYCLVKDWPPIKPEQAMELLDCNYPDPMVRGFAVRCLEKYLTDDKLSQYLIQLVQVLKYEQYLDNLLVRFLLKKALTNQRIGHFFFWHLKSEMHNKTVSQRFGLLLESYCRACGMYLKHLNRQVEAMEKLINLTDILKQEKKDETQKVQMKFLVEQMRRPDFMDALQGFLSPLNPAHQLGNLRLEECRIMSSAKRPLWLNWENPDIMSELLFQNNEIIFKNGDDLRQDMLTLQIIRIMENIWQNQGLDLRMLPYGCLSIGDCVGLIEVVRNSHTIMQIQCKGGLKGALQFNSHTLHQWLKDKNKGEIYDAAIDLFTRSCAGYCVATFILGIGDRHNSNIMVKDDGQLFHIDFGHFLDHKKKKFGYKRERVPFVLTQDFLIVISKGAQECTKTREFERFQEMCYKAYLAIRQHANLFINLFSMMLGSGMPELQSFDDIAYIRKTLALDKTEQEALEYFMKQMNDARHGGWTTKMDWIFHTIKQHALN
UniProt P27986, whole entry partner: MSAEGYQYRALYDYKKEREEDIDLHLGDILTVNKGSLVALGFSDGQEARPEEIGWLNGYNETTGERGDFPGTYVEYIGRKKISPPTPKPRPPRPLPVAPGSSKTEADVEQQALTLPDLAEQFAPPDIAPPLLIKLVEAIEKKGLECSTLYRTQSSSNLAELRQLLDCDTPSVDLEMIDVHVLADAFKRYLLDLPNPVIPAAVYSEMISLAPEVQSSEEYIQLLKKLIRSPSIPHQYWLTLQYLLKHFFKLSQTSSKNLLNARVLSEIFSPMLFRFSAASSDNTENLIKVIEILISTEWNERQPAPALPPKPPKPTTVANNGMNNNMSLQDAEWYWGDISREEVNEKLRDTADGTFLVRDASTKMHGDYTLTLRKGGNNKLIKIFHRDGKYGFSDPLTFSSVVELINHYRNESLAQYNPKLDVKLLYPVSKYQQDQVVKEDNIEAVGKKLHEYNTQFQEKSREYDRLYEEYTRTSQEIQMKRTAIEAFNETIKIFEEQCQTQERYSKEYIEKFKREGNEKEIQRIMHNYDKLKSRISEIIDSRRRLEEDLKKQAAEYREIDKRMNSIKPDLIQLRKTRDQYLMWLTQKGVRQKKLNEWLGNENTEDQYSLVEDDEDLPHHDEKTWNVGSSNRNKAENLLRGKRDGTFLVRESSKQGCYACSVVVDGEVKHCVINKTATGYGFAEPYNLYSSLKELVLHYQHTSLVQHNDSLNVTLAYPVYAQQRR

## Cc1nn(C)c2ccc(-c3cc(=O)n4cc(Cl)cc([C@H](C)Nc5ccccc5C(=O)O)c4n3)cc12
EGF stimulation
  pIC50: > 7.00
[1]
  T47D pAKT S473 HTRF IC50 (H1047R): T47D (H1047R) selectivity over SKBR3 (WT): A (A denotes >20-fold)

## Cc1cc([C@H](C)Nc2ccccc2S(N)(=O)=O)c2nc(-c3ccc4c(c3)c(C)cn4C3CC3)c(C)c(=O)n2c1
EGF stimulation
  pIC50: 6.30 to 7.00
[1]
  T47D pAKT S473 HTRF IC50 (H1047R): T47D (H1047R) selectivity over SKBR3 (WT): A (A denotes >20-fold)

## Cc1cc(C(C)Nc2ccccc2C(=O)O)c2nc(N3CCC(CO)CC3)cc(=O)n2c1 (stereo not drawn)
[2]
  pIC50: < 5.70
[3]
  T47D pAKT S473 HTRF IC50 (H1047R): T47D (H1047R) selectivity over SKBR3 (WT): C (C denotes ≤5-fold)

## Cc1cc([C@H](C)Nc2ccccc2C(=O)O)c2nc(-c3ccc4c(n3)c(C)nn4C)c(C)c(=O)n2c1
EGF stimulation
  pIC50: < 5.70
[1]
  T47D pAKT S473 HTRF IC50 (H1047R): T47D (H1047R) selectivity over SKBR3 (WT): C (C denotes ≤5-fold)

## Cc1cc([C@H](C)Nc2ccccc2C(=O)O)c2nc(-c3ccnc(C)n3)c(C)c(=O)n2c1
EGF stimulation
  pIC50: 6.30 to 7.00
[3]
  T47D pAKT S473 HTRF IC50 (H1047R): T47D (H1047R) selectivity over SKBR3 (WT): A (A denotes >20-fold)

## Cc1cc(C(C)Nc2ccccc2C(=O)O)c2nc(-c3cc(F)cc4c3CC[C@H]4O)cc(=O)n2c1 (stereo partly drawn)
EGF stimulation
  pIC50: 6.30 to 7.00
[1]
  T47D pAKT S473 HTRF IC50 (H1047R): T47D (H1047R) selectivity over SKBR3 (WT): A (A denotes >20-fold)

## Cc1cc([C@@H](C)Nc2ccccc2C(=O)O)c2nc(-c3ccc4c(c3)c(C#N)nn4C)c(C)c(=O)n2c1
EGF stimulation
  pIC50: > 7.00
[3]
  T47D pAKT S473 HTRF IC50 (H1047R): T47D (H1047R) selectivity over SKBR3 (WT): A (A denotes >20-fold)

## Cc1cc([C@@H](C)Nc2ccccc2C(=O)O)c2nc(-c3cc(C)c4[nH]c(=O)[nH]c4c3)cc(=O)n2c1 (single isomer, unassigned)
[2]
  pIC50: < 5.70
[3]
  T47D pAKT S473 HTRF IC50 (H1047R): T47D (H1047R) selectivity over SKBR3 (WT): C (C denotes ≤5-fold)

## Cc1cc(C(C)Nc2cc3cn[nH]c3cc2C(=O)O)c2nc(N3CCOCC3)cc(=O)n2c1 (stereo not drawn)
EGF stimulation
  pIC50: < 5.70
[1]
  T47D pAKT S473 HTRF IC50 (H1047R): T47D (H1047R) selectivity over SKBR3 (WT): C (C denotes ≤5-fold)

## Cc1cc([C@H](C)Nc2ccccc2C(=O)O)c2nc(-c3ccc(C4CC4)nc3)c(C)c(=O)n2c1
EGF stimulation
  pIC50: 5.70 to 6.30

## Cc1cc([C@@H](C)Nc2ccccc2C(=O)O)c2nc(-c3cnc(C)c(Cl)c3)c(C3CC3)c(=O)n2c1
EGF stimulation
  pIC50: > 7.00
[3]
  T47D pAKT S473 HTRF IC50 (H1047R): T47D (H1047R) selectivity over SKBR3 (WT): A (A denotes >20-fold)

## Cc1cc([C@H](C)Nc2ccccc2C(=O)O)c2nc(-c3ccc4c(n3)c(C)nn4C)cc(=O)n2c1
EGF stimulation
  pIC50: 5.70 to 6.30

## Cc1cc([C@H](C)Nc2ccccc2C(=O)O)c2nc(-c3cc(C)c4[nH]c(=O)[nH]c4c3)cc(=O)n2c1 (single isomer, unassigned)
[2]
  pIC50: 5.70 to 6.30

## Cc1cc([C@H](C)Nc2ccccc2)c2nc(N3Cc4ccccc4C3)c(C)c(=O)n2c1
EGF stimulation
  pIC50: < 5.70
[3]
  T47D pAKT S473 HTRF IC50 (H1047R): T47D (H1047R) selectivity over SKBR3 (WT): C (C denotes ≤5-fold)

## Cc1cc([C@@H](C)Nc2ccccc2C(=O)O)c2nc(N3CCN(c4ccncc4)CC3)cc(=O)n2c1 (single isomer, unassigned)
[2]
  pIC50: < 5.70
[3]
  T47D pAKT S473 HTRF IC50 (H1047R): T47D (H1047R) selectivity over SKBR3 (WT): C (C denotes ≤5-fold)

## Cc1cc([C@@H](C)Nc2ccccc2C(=O)O)c2nc(N3Cc4ccccc4C3)cc(=O)n2c1 [392]
[2]
  pIC50: < 5.70
[3]
  T47D pAKT S473 HTRF IC50 (H1047R): T47D (H1047R) selectivity over SKBR3 (WT): C (C denotes ≤5-fold)

## Cc1cc([C@@H](C)Nc2ccccc2C(=O)O)c2nc(-c3cnc(C)c(C(F)(F)F)c3)c(C)c(=O)n2c1
EGF stimulation
  pIC50: > 7.00
[3]
  T47D pAKT S473 HTRF IC50 (H1047R): T47D (H1047R) selectivity over SKBR3 (WT): A (A denotes >20-fold)

## Cc1cc([C@@H](C)Nc2ccccc2C(=O)O)c2nc(-c3ccnc(C4CC4)n3)c(C)c(=O)n2c1
EGF stimulation
  pIC50: > 7.00
[3]
  T47D pAKT S473 HTRF IC50 (H1047R): T47D (H1047R) selectivity over SKBR3 (WT): A (A denotes >20-fold)

## C=CC(=O)Nc1ccc(C(=O)O)c(N[C@@H](C)c2cc(C)cn3c(=O)cc(N4Cc5ccccc5C4)nc23)c1
EGF stimulation
  pIC50: < 5.70
[1]
  T47D pAKT S473 HTRF IC50 (H1047R): T47D (H1047R) selectivity over SKBR3 (WT): C (C denotes ≤5-fold)

## Cc1cc([C@@H](C)Nc2ccccc2C(=O)O)c2nc(N3CC4(CCOC4)C3)cc(=O)n2c1
[2]
  pIC50: < 5.70
[3]
  T47D pAKT S473 HTRF IC50 (H1047R): T47D (H1047R) selectivity over SKBR3 (WT): C (C denotes ≤5-fold)

## Cc1cc(C(C)Nc2ccccc2C(=O)O)c2nc(OCc3ccc(F)cc3)c(C)c(=O)n2c1 (stereo not drawn)
EGF stimulation
  pIC50: 6.30 to 7.00
[3]
  T47D pAKT S473 HTRF IC50 (H1047R): T47D (H1047R) selectivity over SKBR3 (WT): A (A denotes >20-fold)

Reference: US20260132129A1
